Reference: patent US20230322822A1, “ARYL PHOSPHOROUS OXIDE COMPOUNDS AND USE THEREOF” (Chengdu Di'ao Jiuhong Pharmaceutical Factory, priority 2020, published 2023)

Protein sequences, listed by entry. Tags and fused reporters are not part of them. Residues count along the entry.
UniProt P00533, 25-1210 T790M/C797S limits assumed: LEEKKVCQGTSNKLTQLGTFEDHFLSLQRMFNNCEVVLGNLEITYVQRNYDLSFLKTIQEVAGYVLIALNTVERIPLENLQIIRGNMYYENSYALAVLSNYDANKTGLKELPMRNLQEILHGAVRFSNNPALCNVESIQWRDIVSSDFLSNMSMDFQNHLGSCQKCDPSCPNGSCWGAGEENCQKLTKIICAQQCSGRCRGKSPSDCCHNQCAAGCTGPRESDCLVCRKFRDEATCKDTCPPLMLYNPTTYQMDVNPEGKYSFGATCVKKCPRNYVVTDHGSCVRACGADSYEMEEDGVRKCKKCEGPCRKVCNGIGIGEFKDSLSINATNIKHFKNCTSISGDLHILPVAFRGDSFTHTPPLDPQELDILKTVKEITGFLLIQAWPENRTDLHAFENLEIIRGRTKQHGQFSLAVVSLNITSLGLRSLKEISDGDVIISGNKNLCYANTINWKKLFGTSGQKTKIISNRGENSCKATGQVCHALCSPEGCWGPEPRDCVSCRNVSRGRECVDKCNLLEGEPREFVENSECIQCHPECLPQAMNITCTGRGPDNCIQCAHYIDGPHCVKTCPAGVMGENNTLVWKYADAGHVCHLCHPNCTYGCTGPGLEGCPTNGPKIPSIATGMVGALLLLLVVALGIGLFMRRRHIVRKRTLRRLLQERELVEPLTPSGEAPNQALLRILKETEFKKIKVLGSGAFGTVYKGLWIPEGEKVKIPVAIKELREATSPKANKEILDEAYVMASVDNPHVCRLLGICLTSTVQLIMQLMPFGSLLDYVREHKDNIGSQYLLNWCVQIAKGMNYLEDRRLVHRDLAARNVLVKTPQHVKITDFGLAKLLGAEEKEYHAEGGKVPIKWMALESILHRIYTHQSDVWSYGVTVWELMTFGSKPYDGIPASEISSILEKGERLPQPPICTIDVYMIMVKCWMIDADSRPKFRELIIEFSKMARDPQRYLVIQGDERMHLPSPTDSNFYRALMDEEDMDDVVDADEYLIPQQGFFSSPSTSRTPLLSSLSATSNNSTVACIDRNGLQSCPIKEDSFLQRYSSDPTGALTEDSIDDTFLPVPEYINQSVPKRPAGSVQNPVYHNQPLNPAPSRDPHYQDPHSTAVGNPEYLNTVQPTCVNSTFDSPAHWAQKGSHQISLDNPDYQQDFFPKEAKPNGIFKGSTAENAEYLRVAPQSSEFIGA

What was measured:
[1] = system: Ba/F3 cells expressing EGFR-C797S/Del19; test: Cell anti-proliferation test 1 (CTG), BaF3 EGFR-C797S/Del19; settings: Mus musculus, BaF3, 72 h, read-out: EGFR-C797S-Del19 IC50
[2] = system: Ba/F3 cells expressing EGFR-C797S/L858R; test: Cell anti-proliferation test 1 (CTG), BaF3 EGFR-C797S/L858R; settings: Mus musculus, BaF3, 72 h, read-out: EGFR-C797S/L858R IC50
EGFR-C797S/T790M/Del19 = EGFR-C797S/T790M/Del19 (Homo sapiens, UniProt P00533, C797S/T790M, form not given); test: Enzymatic activity test (ADP-Glo) EGFR-C797S/T790M/Del19; assay type: biochemical; settings: kinase

| SMILES | IC50 [1] | IC50 [2] | IC50 (EGFR-C797S/T790M/Del19) |
| --- | --- | --- | --- |
| COc1cc(N2CCC(N(C)C)CC2)c(C)cc1Nc1ncc(Cl)c(Nc2ccc(C)cc2P(C)(C)=O)n1 [Compound 5] | 50 nM | 90.6 nM | – |
| COc1cc(N2CCC(N3CCN(C)CC3)CC2)c(C)cc1Nc1ncc(Br)c(Nc2ccc(C(C)C)cc2P(C)(C)=O)n1 [Compound 36] | – | 133 nM | – |
| CCc1cc(Nc2ncc(Br)c(Nc3ccc(C(C)C)cc3P(C)(C)=O)n2)c(OC)cc1N1CCC(N2CCN(C)CC2)CC1 [Compound 37] | – | 103 nM | – |
| COc1cc(N2CCC(N3CCN(C)CC3)CC2)c(C)cc1Nc1ncc(Br)c(Nc2ccc(Cl)cc2P(C)(C)=O)n1 [Compound 33] | – | 84.9 nM | – |
| COc1cc(N2CCC(N3CCN(C)CC3)CC2)c(Cl)cc1Nc1ncc(Br)c(Nc2ccc(F)cc2P(C)(C)=O)n1 [Compound 35] | – | 180 nM | – |
| Cc1ccc(Nc2nc(Nc3cc(C)c(N4CCC(N5CCN(C)CC5)CC4)cc3OC(F)F)ncc2Br)c(P(C)(C)=O)c1 [Compound 24] | 41.6 nM | – | – |
| CCc1cc(Nc2ncc(Br)c(Nc3ccc(C)cc3P(C)(C)=O)n2)c(OC)cc1N1CCC(N2CCN(C)CC2)CC1 [Compound 12] | 29.3 nM | 113 nM | – |
| COc1cc(N2CCC(N3CCN(C)CC3)CC2)c(C)cc1Nc1ncc(C)c(Nc2ccc(C)cc2P(C)(C)=O)n1 [Compound 4] | 80.6 nM | – | – |
| COc1cc(N2CCC(N3CCOCC3)CC2)c(C)cc1Nc1ncc(Br)c(Nc2ccc(C)cc2P(C)(C)=O)n1 [Compound 30] | 55.6 nM | – | – |
| COc1cc(N2CCC(N3CCN(C)CC3)CC2)c(C)cc1Nc1ncc(Br)c(Nc2ccc(F)cc2P(C)(C)=O)n1 [Compound 11] | 66.1 nM | 24.1 nM | – |
| COc1cc(N2CCOCC2)c(C)cc1Nc1ncc(Br)c(Nc2ccc(C)cc2P(C)(C)=O)n1 [Compound 28] | 85.2 nM | – | – |
| COc1cc(N2CCC(N3CCN(C)CC3)CC2)c(Br)cc1Nc1ncc(Br)c(Nc2ccc(C)cc2P(C)(C)=O)n1 [Compound 32] | 51.6 nM | 43.8 nM | – |
| COc1cc(N2CCC(N(C)C)CC2)c(C)cc1Nc1ncc(Br)c(Nc2ccc(C)cc2P(C)(C)=O)n1 [Compound 6] | 51 nM | 37.1 nM | 6.6 nM |
| COc1cc(N2CCC(N3CCN(C)CC3)CC2)c(Cl)cc1Nc1ncc(Br)c(Nc2ccc(C)cc2P(C)(C)=O)n1 [Compound 14] | 43.9 nM | 31.7 nM | – |
| COc1cc(N2CCC(N3CCN(C)CC3)CC2)c(C)cc1Nc1ncc(Cl)c(Nc2ccc(C)cc2P(C)(C)=O)n1 [Compound 1] | 39.9 nM | 90 nM | – |
| COc1cc(N2CCN(C)CC2)c(C)cc1Nc1ncc(Br)c(Nc2ccc(C)cc2P(C)(C)=O)n1 [Compound 29] | 57.8 nM | – | – |
| Cc1ccc(Nc2nc(Nc3cc(C)c(N4CCC(N5CCN(C)CC5)CC4)cc3OCC(F)(F)F)ncc2Br)c(P(C)(C)=O)c1 [Compound 23] | 79.6 nM | – | – |
| COc1cc(N2CCC(N3CCN(C)CC3)CC2)c(C(C)C)cc1Nc1ncc(Br)c(Nc2ccc(C)cc2P(C)(C)=O)n1 [Compound 13] | 60.1 nM | – | – |
